Among the data in US11512090B2, “Muscarinic acetylcholine M1 receptor antagonists” (PIPELINE THERAPEUTICS, INC., priority 2018, dated 2022) are IC50 values, retold here.

By UniProt entry, the sequences of proteins in these tests, tags left out.
UniProt P08172, whole entry: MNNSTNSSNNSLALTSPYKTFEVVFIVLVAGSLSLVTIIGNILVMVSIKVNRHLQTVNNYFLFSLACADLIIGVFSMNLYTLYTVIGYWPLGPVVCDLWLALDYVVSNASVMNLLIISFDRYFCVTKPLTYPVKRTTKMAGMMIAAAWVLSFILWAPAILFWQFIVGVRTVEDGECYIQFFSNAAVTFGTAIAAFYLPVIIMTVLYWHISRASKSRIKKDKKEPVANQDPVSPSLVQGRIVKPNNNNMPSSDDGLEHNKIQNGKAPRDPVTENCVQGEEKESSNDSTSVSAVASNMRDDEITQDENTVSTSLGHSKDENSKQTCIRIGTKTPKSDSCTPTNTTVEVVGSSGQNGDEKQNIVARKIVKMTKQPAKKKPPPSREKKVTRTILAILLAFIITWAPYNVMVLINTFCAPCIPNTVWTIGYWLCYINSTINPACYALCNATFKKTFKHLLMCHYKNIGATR
UniProt P20309, whole entry: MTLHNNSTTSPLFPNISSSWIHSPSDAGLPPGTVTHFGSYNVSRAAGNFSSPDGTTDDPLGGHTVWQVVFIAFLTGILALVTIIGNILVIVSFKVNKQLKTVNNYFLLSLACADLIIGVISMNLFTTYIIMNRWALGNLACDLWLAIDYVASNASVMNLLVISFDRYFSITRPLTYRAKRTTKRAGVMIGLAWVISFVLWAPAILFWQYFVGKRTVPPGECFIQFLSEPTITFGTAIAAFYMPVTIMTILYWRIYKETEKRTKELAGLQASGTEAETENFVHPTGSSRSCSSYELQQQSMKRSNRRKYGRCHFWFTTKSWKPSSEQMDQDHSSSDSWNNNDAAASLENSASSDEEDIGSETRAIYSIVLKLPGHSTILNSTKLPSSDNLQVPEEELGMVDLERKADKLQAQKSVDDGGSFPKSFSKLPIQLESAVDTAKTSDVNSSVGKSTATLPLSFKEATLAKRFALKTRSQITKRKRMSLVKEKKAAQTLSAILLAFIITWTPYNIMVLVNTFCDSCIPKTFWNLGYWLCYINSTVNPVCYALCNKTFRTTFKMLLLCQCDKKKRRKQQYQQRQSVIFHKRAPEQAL

A value given as a limit tells only on which side of the number the result lay.

One assay addresses M2 (Homo sapiens, UniProt P08172). Put plainly: In vitro functional assay of muscarinic acetylcholine receptor activity, M2. In kind it is cell-based. Here is the method:
[The procedure below names another target; the source lists this target under the same test.] (§1) CHO-K1 cells stably expressing human M1 receptor with Aequorin (Perkin Elmer) were grown in F12 media, 10% FBS with 0.4 mg/mL geneticin and […]. Cells were grown to confluence and frozen down to be assayed at a later date. On the day of the experiment cells were thawed in a 37° C. water bath, resuspended in DMEM/HAM's F12 with HEPES (Invitrogen)+0.1% protease-free BSA (assay buffer), and spun down to remove freezing media. After centrifugation, supernatant was removed and 12 mL of assay buffer was added. Coelenterazine h (Promega) was added to the cells at a final concentration of 5 uM and incubated for 4 hours at room temperature in the dark. Compound master plate-96 deep well (Corning) were formatted in a 8-point DRC in assay buffer with 0.2% DMSO at a starting concentration of 60 uM (2×). […]
(§2) Calcium flux was measured using the FlexStation 3 (Molecular Devices). To measure the antagonist dose-response, the EC80 of Acetylcholine was injected to the daughter plate using the automated compound transfer function of the Flex Station, and the increase in luminescence was measured over time. Antagonist activity was analyzed as a concentration dependent decrease in the EC80 acetylcholine response. […] The IC50 of the compounds was calculated from the dose response curve.

Another assay deals with M3 (Homo sapiens, UniProt P20309). Put plainly: In vitro functional assay of muscarinic acetylcholine receptor activity, M3. It counts as cell-based. The procedure:
[The procedure below names another target; the source lists this target under the same test.] as §1, §2

For `N#Cc1ccc(N2C3CCC2CN(C(=O)CCNCc2c(F)ccc4ncnn24)C3)nc1` [Example 41, 6-(3-{3-[({6-fluoro-[1,2,4]triazolo[1,5-a]pyridin-5-yl}methyl)amino]propanoyl}-3,8-diazabicyclo[3.2.1]octan-8-yl)pyridine-3-carbonitrile], the figures for the IC50 at M2 and against M3 were 1 to 10 µM and above 10 µM, respectively.
